The values that follow are results of earlier work, collected in US20090088403A1, “A3 ADENOSINE RECEPTORS AS TARGETS FOR THE MODULATION OF CENTRAL SEROTONERGIC SIGNALING” (priority 2007, published 2009).

Chains of the proteins cited; added tags and fusions are not shown. Lines headed by an entry give the natural chain unless they say otherwise; changes in a name come on top.
UniProt P30543, whole entry: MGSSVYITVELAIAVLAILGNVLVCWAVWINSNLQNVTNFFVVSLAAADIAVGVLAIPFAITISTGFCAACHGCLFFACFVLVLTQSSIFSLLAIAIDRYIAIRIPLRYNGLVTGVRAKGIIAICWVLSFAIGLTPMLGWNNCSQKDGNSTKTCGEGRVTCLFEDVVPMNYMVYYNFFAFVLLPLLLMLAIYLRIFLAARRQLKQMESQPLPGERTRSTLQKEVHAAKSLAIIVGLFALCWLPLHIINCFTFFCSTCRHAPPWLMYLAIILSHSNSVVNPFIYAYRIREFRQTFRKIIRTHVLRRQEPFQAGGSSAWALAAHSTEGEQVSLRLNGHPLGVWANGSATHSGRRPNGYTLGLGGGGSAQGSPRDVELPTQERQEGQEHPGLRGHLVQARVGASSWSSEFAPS
UniProt P25099, whole entry: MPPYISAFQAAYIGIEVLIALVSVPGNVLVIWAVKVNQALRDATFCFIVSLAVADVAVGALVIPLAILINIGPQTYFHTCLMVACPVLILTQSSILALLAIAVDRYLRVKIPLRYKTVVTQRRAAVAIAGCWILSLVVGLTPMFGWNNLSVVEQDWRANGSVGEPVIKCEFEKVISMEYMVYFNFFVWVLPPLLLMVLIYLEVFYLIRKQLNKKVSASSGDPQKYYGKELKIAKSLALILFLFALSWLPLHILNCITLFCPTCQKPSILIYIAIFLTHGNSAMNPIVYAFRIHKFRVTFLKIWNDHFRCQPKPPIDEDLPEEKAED

Broadly, the Kd is a measure of binding affinity in units of concentration.

For one series, the target named is A2A AR (Rattus norvegicus, UniProt P30543). The following applies: rat and mouse; cited from earlier work.
A further series has as its target A1 AR (Rattus norvegicus, UniProt P25099). The following applies: read-out: KD A1 AR; rat and mouse; cited from earlier work.

As for “N6-(3-iodobenzyl)-N-methyl-5′carbamoyladenosine [IB-MECA]”, the Kd on A2A AR and at A1 AR was ~50 nM in each case.
